From US20060100243A1 (priority 2004, published 2006)

By UniProt entry, the sequences of proteins in these tests, tags left out.
UniProt Q01959, whole entry: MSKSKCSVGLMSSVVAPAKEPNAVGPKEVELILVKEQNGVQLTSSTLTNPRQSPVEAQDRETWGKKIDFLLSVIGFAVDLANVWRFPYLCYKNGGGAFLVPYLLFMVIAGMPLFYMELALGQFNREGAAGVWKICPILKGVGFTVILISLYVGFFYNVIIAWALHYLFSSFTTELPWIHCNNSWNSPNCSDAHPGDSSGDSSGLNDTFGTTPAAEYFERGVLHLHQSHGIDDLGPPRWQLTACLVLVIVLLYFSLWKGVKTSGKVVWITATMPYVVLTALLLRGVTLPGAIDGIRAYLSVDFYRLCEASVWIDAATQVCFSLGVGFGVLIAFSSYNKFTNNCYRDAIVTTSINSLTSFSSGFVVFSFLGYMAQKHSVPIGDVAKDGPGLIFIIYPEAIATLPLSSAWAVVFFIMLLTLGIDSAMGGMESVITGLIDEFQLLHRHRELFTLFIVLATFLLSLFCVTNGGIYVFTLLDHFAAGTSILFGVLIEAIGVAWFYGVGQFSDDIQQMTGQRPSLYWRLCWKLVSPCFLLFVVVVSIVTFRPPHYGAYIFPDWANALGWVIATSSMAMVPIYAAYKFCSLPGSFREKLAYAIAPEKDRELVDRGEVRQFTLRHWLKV
UniProt P23975, whole entry: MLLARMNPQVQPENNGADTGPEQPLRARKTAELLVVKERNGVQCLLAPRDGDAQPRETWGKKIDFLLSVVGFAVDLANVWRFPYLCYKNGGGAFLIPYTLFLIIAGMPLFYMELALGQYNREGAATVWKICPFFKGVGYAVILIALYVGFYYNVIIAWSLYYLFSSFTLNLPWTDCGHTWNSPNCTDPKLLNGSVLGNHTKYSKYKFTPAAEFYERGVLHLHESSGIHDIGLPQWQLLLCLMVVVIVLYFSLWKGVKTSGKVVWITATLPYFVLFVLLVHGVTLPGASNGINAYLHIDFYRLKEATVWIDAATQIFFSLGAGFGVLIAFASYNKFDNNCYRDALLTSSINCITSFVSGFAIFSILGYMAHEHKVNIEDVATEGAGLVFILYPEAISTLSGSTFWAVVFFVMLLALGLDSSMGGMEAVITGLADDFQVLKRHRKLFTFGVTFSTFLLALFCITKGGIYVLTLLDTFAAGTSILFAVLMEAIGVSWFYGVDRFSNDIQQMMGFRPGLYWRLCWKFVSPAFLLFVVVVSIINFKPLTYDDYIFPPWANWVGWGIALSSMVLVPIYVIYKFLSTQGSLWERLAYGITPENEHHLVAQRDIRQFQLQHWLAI

Legend:
[1] = biological target: T1, recombinant human dopamine transporter (Homo sapiens, UniProt Q01959); assay: dopamine reuptake inhibition in HEK 293 cells; format: cell-based; conditions: ratio of NE/DA reuptake IC50; selectivity for dopamine over norepinephrine transporter
T1 construct: expressed in transfected cells

[2] = biological target: T2, recombinant human norepinephrine transporter (Homo sapiens, UniProt P23975); assay: cell-based; conditions: RR/SS racemates table; HEK 293 cells; read-out: NOREPINEPHRINE NE REUPTAKE (IC50)
T2 construct: expressed in transfected cells

In the case of `Clc1ccc(C(C2CCCC2)C2CCCCN2)cc1` (single isomer, unassigned) [K], the “NE/DA REUPTAKE” value [1] is reported as 1.6 and the IC50 [2] is reported as 44 ± 18 nM.
